## Apparent affinities of Ab-14 variants for a coronavirus HR2 peptide

From the AlphaSeq antibody data of Engelhart et al. 2022 (doi:10.1038/s41597-022-01779-4), copy in the FLAb collection.

The target is the same throughout: PDVDLGDISGINAS, from the HR2 region of SARS-CoV-2 spike.

Parent: Ab-14, a human scFv built as VH, three GGGGS repeats, VL. Only the CDRs of the light chain vary.
VH: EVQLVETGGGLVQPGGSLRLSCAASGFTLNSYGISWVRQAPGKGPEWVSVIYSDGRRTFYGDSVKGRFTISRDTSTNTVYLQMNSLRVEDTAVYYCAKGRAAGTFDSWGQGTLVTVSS
VL: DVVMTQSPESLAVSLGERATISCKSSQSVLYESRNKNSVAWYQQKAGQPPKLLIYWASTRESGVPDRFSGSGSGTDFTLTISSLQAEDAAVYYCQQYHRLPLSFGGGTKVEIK

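The starting antibody came from a phage panning campaign against this peptide. Variants in AAYL50 differ from the parent at up to three CDR positions; double and triple changes were sampled at random. The assay is AlphaSeq: two haploid yeast populations carry antibody and antigen on their surface. The frequency of each diploid, read from paired DNA barcodes, reflects how well the two displayed proteins bind. Scores were corrected for input abundance and mapped to Kd with protein pairs of known affinity run in the same pool. The assay was run in three technical replicates.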

The parent's light chain CDRs are KSSQSVLYESRNKNSVA, WASTRES, QQYHRLPLS; each variant's own CDRs replace them letter for letter. Scale: log10 of Kd in nM, estimated from mating counts; low values are strong binders. A pair that was not seen in that replicate is written "nd"; this usually means weak binding, but a binder can also be missed. Three control strains display no target. For library AAYL50, 18% of the pairings with them gave a signal, with a median of 4.19 and one signal in twenty below 2.99, so weak values seen in few replicates may be background. The control count says in how many pairings with the empty strains this scFv gave a signal, with their mean in brackets. In this assay the parent's reference entry averaged 0.65; its copy inside this library read 1.68.

| CDR-L1 | CDR-L2 | CDR-L3 | log10 Kd, replicates | signal with controls |
|---|---|---|---|---|
| GSSQSVLYESRNKNWVA | WASTRES | QQYHRLPLK | 3.87 4.89 4.69 | 5/9 (4.69) |
| KSSQCVLYESRNKNSVA | WASTRES | QQYSNLPLS | nd nd nd | 0/9 |
| GSSQSVLYESYNKYSVA | WASTRES | QQYHRLPLS | 5.18 4.30 5.03 | 6/9 (5.62) |
| KSSQSVLYESRFKNSWA | WASTDES | QQYHRLPLS | 4.53 4.48 nd | 6/9 (4.65) |
| WSSQSVLYESRNKNSVA | WAATRTS | QQYHRLPLS | nd nd nd | 0/9 |
| KSSQSVNYESRNKNSVA | WASTREL | QQYHRLPLS | 3.81 nd nd | 0/9 |
| KSSQCVLYESRNKNSVA | WLSTRES | QQYHRKPLS | nd nd nd | 1/9 (4.89) |
| KSSQQVLYESRNKNSVA | WASTRES | QIYHVLPLS | 4.09 3.97 nd | 4/9 (4.13) |
| KSSQSVLYESRNKNSVA | WASGRPS | QQYHRPPLS | nd nd 2.93 | 2/9 (3.90) |
| KSSPSVLYESRNKNSVA | WWSPRES | QQYHRLPLS | nd nd nd | 0/9 |
| KSSQSILYESLRKNSVA | WASTRES | QQYHRLPLS | 1.21 1.31 1.44 | 2/9 (5.22) |
| KSSQSVLYETRNKMSVA | WASTPES | QQYHRLPLS | nd nd nd | 0/9 |
| KSSQSVLYESRNKNSVA | IASTRES | QQYHRAALS | nd nd 5.32 | 0/9 |
| KSSQSVLYASRNKNSVA | WASTGES | QQYHRYPLS | nd 2.55 nd | 2/9 (3.31) |
| KISQSVIYESRNKNSVA | WASTRES | QQYHRRPLS | 3.79 3.85 nd | 2/9 (4.65) |
| KSSQSVLYESRNKNSVA | WASTKES | QQYHRLPWS | nd nd nd | 0/9 |
| YSSQSVLYESANKNSVA | WASTRET | QQYHRLPLS | 2.43 1.91 2.47 | 1/9 (4.51) |
| KSSQSVLYESRNKPSVA | PASTRES | QQYHRLPGS | 5.74 3.99 5.94 | 6/9 (5.06) |
| KSPQSVLYESRNKNSVT | WASTRES | QQYHRLPLS | nd nd nd | 1/9 (2.86) |
| KSSQSVLYESYNKNSVA | WASTRES | QQTHRKPLS | 0.46 1.03 0.65 | 4/9 (4.74) |
| KSAQSVLYESRNKNSVA | WSNTRES | QQYHRLPLS | 2.12 2.31 2.32 | 8/9 (4.12) |
| KSSQSVSYESRNKNSWA | WASTRES | QQYHRLPLS | nd 5.09 nd | 1/9 (3.88) |
| KSMQSVLYESRNKNSVA | WAQTRES | QQYHRLVLS | nd nd 5.28 | 2/9 (4.83) |
| GSSQSVEYESRNKNSVA | WASTIES | QQYHRLPLS | 4.01 3.21 nd | 4/9 (3.93) |
| KSSQSVLPEWRNKNQVA | WASTRES | QQYHRLPLS | 2.13 2.22 2.37 | 1/9 (4.91) |
| KSSQSVLYESRNKNSVA | WASTRKS | QQGHRLPLD | nd nd 5.22 | 1/9 (3.08) |
| KPHQSVLYESRNKNSVA | WASTREH | QQYHRLPLS | 1.85 1.60 1.71 | 3/9 (3.65) |
| KSKQSVLYESRNKNSVA | WASERES | QQYHFLPLS | nd nd nd | 1/9 (2.59) |
| KSSQSVLYESRNKNSVA | WASTRES | QQYQRNPPS | 1.35 1.48 1.56 | 3/9 (4.79) |
| KASYSVLYYSRNKNSVA | WASTRES | QQYHRLPLS | 3.09 3.41 3.99 | 7/9 (4.29) |
| KSSQSVLYESRNKNSVA | WASTRES | QNYHRLFLS | 4.54 nd nd | 1/9 (2.55) |
| KSSQSVLYESRNKNSVA | WASTRES | RQWWRLPLS | nd nd nd | 3/9 (4.06) |
| KSSQSVLYESRNKNSVA | WASTRES | QQYWRLPLF | 2.00 1.96 2.01 | 1/9 (5.82) |
| KSSQSVQYESRNRNSVA | WASTRES | QQIHRLPLS | 5.69 nd nd | 1/9 (5.60) |
| KYSQSVIYESRNKNSVA | WASTRES | QQYHRLPLA | 0.73 0.91 0.86 | 3/9 (5.18) |
| CSSQSVLYESRNMNSVA | WASTRES | QLYHRLPLS | nd nd nd | 0/9 |
| KSSMSVEYESRNKNPVA | WASTRES | QQYHRLPLS | 0.18 0.71 0.50 | 0/9 |
| KSETSVLYEDRNKNSVA | WASTRES | QQYHRLPLS | -0.01 0.28 0.23 | 0/9 |
| KSSASVLYESRNKQSVA | WASTRES | QQYHRLPPS | nd nd nd | 0/9 |
| KSSQSILYESRNKNCVA | WASTRES | QQYHRLPLS | 2.74 2.65 3.59 | 1/9 (3.79) |

Excerpt, the final 6 entries:

CDR-L1	CDR-L2	CDR-L3	log10 Kd, replicates	signal with controls
KYSQSVIYESRNKNSVA	WASTRES	QQYHRLPLA	0.73 0.91 0.86	3/9 (5.18)
CSSQSVLYESRNMNSVA	WASTRES	QLYHRLPLS	nd nd nd	0/9
KSSMSVEYESRNKNPVA	WASTRES	QQYHRLPLS	0.18 0.71 0.50	0/9
KSETSVLYEDRNKNSVA	WASTRES	QQYHRLPLS	-0.01 0.28 0.23	0/9
KSSASVLYESRNKQSVA	WASTRES	QQYHRLPPS	nd nd nd	0/9
KSSQSILYESRNKNCVA	WASTRES	QQYHRLPLS	2.74 2.65 3.59	1/9 (3.79)